# A549 viability = A549 cytotoxicity, counter-screen for Nrf2 inhibitors | A549 ARE-Fluc cells, CellTiter-Fluor viability, 18-24 h | Potency, µM (titrated, usually from 46 µM), for inactives: top-dose activity change, negative = cytotoxicity, hits mostly inhibitors | 0.16% of 390,000 active | AID 504648; note: potency is the fitted concentration of half-maximal effect; % is set by controls: 0 for no effect and ±100 for the full control effect
#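 Cytotoxicity counterscreen: CellTiter-Fluor fluorescence was measured in A549 ARE_Fluc cells after 18-24 h of compound exposure in a concentration series. The subsequent BugLite luminescent read reports ARE-luciferase activity.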
# Nrf2 activator = Nrf2 pathway activation. AREc32 ARE-luciferase reporter (MCF7-derived line), luminescence, 24 h. 0.31% of 410,000 active. AID 624171. Potency, µM (doses to about 46.1 µM), for the others: at the highest dose activation, hits mostly activators; note: potency is the fitted concentration of half-maximal effect; % of control where 0% means no effect; nearly all actives have a fitted effect of over 65% in size
#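 Each well held 1000 AREc32 cells, which were incubated with compound for 24 hr at 37 deg C after overnight attachment, and ARE reporter activity was quantified by firefly luciferase luminescence.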
# p53 reactivator = mutant p53 re-activation in reporter cells. H1299 p53-A138V BP100-luciferase reporter, luminescence, 24 h. Potency, µM (top dose mostly 92.2 µM), inactives show top-dose activity change, positive = activation, hits mostly activators. 0.063% of 320,000 active; note: potency is the fitted concentration of half-maximal effect; % of control where 0% means no effect; nearly all actives have a fitted effect of over 45% in size
#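 p53-null H1299 cells stably carrying temperature-sensitive p53-A138V and a BP100-luciferase reporter were pinned with compounds (4-point, 1:5 series) and held 24 hrs at 37 deg C. Luminescence was read 10 min after detection reagent.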
# ClpP mod = qHTS Assay for Activators of ClpP | purified B. subtilis ClpP, FRET peptide cleavage, 20 min | Potency, µM (highest dose often 57.5 µM), inactives show at the highest dose activity change, negative = active | 1.9% of 340,000 active; active = well fitted falling curve with a large enough effect; inconclusive = small, poorly fitted or top-dose-only effect; inactive = no such curve, though single readings can be large or run the other way; note: potency is the fitted concentration of half-maximal effect; the source files actives as falling curves though it sought activators and does not explain the sign; nearly all actives have a fitted effect of over 65% in size
#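 ClpP 10 microg/mL final, pH 8 Tris/KCl buffer with BSA, glycerol, Tween-20; compound pinned in; FRET-FV substrate; RT 20 min; Ex320/Em430; ΔFRET vs ADEP 5.8 microM, DMSO, no enzyme.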
# Nrf2 block = blocks Nrf2 signaling | 2.1% of 360,000 active | Potency, µM (top dose mostly 46 µM), for inactives: top-dose activity change, negative = inhibition, actives largely listed as inhibitors | A549 ARE-Fluc reporter, luciferase luminescence, 18-24 h; note: potency is the fitted concentration of half-maximal effect; % is set by controls: 0 for no effect and ±100 for the full control effect; nearly all actives have a fitted effect of over 60% in size
#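 Nrf2 function is reported as luminescence of an ARE-controlled luciferase in A549 cells. Compounds were tested at several concentrations, and a CellTiter-Fluor read on the same wells flagged cytotoxicity.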
# miR-21 reporter = miR-21 reporter, rising signal; Potency, µM (top dose mostly 38.3 µM), for the others: at the highest dose reporter change, positive = more light; 340,000 tested, under 10 active; HeLa miR-21 FLuc reporter, luciferase, 48 h; active = well fitted rising curve with a large enough effect; inconclusive = small, poorly fitted or top-dose-only effect; inactive = no such curve, though single readings can be large or run the other way;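 note: % of control where 0% means no effect; miR-21 action dims this reporter so a rising signal means less miR-21 action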
#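 HeLa miR-21-FLuc reporter line, endogenous miR-21; 2000 cells/well in DMEM/10% FBS; compound titration up to ~40uM final, 48 h, 37 degree Celsius; luciferase detection reagent, 15 min lysis, CCD luminescence.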
# Starred values were filed as active, the others as inactive; ? = inconclusive; . = no result given. This is a sample that favours compounds with a hit; in the whole collection about 3.7% have one here. Unless noted, calls come from the whole dose curve; as a rule, active = well fitted curve in the direction sought with a large enough effect; inconclusive = small, poorly fitted or top-dose-only effect, or another doubt; inactive = no such curve, though single readings can be large; an effect the other way counts as inactive or inconclusive.
1. CC1CCN(CC(CS(=O)(=O)c2ccc([N+](=O)[O-])cc2)N2CCC(C)CC2)CC1 (stereo not given)
2. Cc1ccc(S(=O)(=O)CC(CN2CCOCC2)N2CCOCC2)cc1 (stereo not given)
3. CCOC(=O)C1(Cc2ccccc2)CCN(Cc2cccn2-c2nccs2)CC1
4. CCOC(=O)c1ccccc1NCN1C(=O)CSC1=O
5. CCOC(=O)c1ccc(NC(=O)CN2C(=O)CSC2=O)cc1
6. CCCC(=O)NCCc1cc2cc(C)c(C)cc2[nH]c1=O
Screen / compound no.	1	2	3	4	5	6
A549 viability	?	-2.2%	-15.6%	-2.4%	-0.5%	2.8%
Nrf2 activator	2.6%	-1.2%	7.1%	-0.3%	-0.6%	-0.7%
p53 reactivator	-13.1%	6.5%	0.0%	5.7%	4.6%	-4.7%
ClpP mod	0.6%	.	4.47µM*	28.2µM*	1.2%	25.1µM*
Nrf2 block	23.1µM*	20.7%	?	.	-4.6%	7.6%
miR-21 reporter	2.1%	-0.3%	12.8%	2.0%	-10.4%	-4.8%

7. CC(=O)NCCc1cc2cc(C)c(C)cc2[nH]c1=O
8. CCCCC(=O)NCCc1cc2ccc(OC)cc2[nH]c1=O
9. COc1cccc(N2CCN(C(=O)CN3CCSc4ccccc43)CC2)c1
10. Cc1cccc(S(=O)(=O)NC2CCN(C#N)C2)c1 (stereo not given)
11. COc1ccc(N(C)C(=O)NCc2noc3ccc(C)cc23)c(OC)c1
12. Cc1ccc2oc(=O)c(S(=O)(=O)c3ccc(C(C)(C)C)cc3)cc2c1
Screen / compound no.	7	8	9	10	11	12
A549 viability	-10.0%	-9.4%	-12.5%	-0.8%	3.6%	5.8%
Nrf2 activator	0.0%	-0.2%	3.4%	.	2.0%	-0.5%
p53 reactivator	-1.1%	-3.0%	.	.	.	.
ClpP mod	?	25.1µM*	-1.9%	.	1.1%	-3.7%
Nrf2 block	-6.2%	-4.3%	.	-6.2%	-4.9%	12.9%
miR-21 reporter	-7.0%	-9.7%	11.0%	.	-6.7%	-1.3%

13. COc1ccc(S(=O)(=O)c2cc3cc(C(C)(C)C)cc(O)c3oc2=O)cc1
14. CCOc1cccc2cc(C(=O)Oc3ccc(OC)cc3)c(=O)oc12
15. CCOc1ccc(S(=O)(=O)c2cc3cccc(OCC)c3oc2=O)cc1
16. Cc1ccc(S(=O)(=O)c2cc3ccccc3oc2=O)cc1
17. COc1ccc(-c2cn3nc(N4CCC(C(=O)Nc5cc(Cl)ccc5OC)CC4)sc3n2)cc1
18. O=C(NNC(=O)c1csc(N2CCOCC2)n1)c1ccc(=O)[nH]c1
Screen / compound no.	13	14	15	16	17	18
A549 viability	3.0%	-0.1%	-3.6%	-1.0%	4.3%	4.0%
Nrf2 activator	15.8µM*	2.9%	4.47µM*	5.62µM*	4.8%	-0.6%
p53 reactivator	.	.	.	3.6%	.	-3.2%
ClpP mod	-1.5%	-5.9%	-1.5%	.	0.1%	-5.4%
Nrf2 block	?	0.3%	4.8%	-13.8%	25.3%	4.3%
miR-21 reporter	?	-4.6%	-1.0%	0.0%	-13.4%	.

19. O=C1CCC[C@@H]2CC(Nc3ccccc3)C[C@@H]3CCN1[C@H]23 (stereo not given in full)
20. CCC(C(=O)NCc1ccco1)N(C(=O)CNS(=O)(=O)c1ccc(C)cc1)c1ccccc1F (stereo not given)
21. CCC(C(=O)NCc1ccco1)N(C(=O)CNS(=O)(=O)c1ccc(C)cc1)c1ccccc1OC (stereo not given)
22. CCOc1ccc(-c2csc(NC(=O)CSC3=NC(=O)CN3C(C)=O)n2)c2ccccc12
23. CC(=O)N1CC(=O)N=C1SCC(=O)Nc1nc(C)c(-c2ccccc2)s1
24. COc1ccc(CCNC(=O)Cn2c(-c3cccs3)cc3cc(F)ccc32)cc1OC
Screen / compound no.	19	20	21	22	23	24
A549 viability	.	-0.5%	-6.3%	0.0%	-11.7%	-5.3%
Nrf2 activator	.	-0.8%	-0.2%	-0.3%	11.9%	9.5%
p53 reactivator	.	-1.9%	-1.5%	-2.3%	20.9%	.
ClpP mod	0.9%	.	31.6µM*	-0.4%	20µM*	4.2%
Nrf2 block	.	-3.5%	-4.8%	-6.7%	-7.6%	5.3%
miR-21 reporter	.	-1.0%	-0.2%	0.9%	-12.9%	-1.0%

25. CCN1CCN(CCCNC(=O)Cn2c(-c3cccs3)cc3cc(F)ccc32)CC1
26. O=C(Cn1c(-c2cccs2)cc2cc(F)ccc21)NCCCN1CCN(c2ccc(F)cc2)CC1
27. Cc1ccc(NS(=O)(=O)c2ccc(OCC(=O)NCc3ccccn3)cc2)cc1
28. COc1ccc(C2Nc3ccccc3C(=O)N2Cc2ccccc2)cc1COc1ccc(Cl)cc1 (stereo not given)
29. O=C1CCCC2=C1C1(CCOCC1)N=C(Nc1nc3ccccc3o1)N2
30. C=C1C(=O)O[C@@]23[C@H]1CC[C@@H](C)[C@@H]2CC[C@@]1(C)O[C@@H]31
Screen / compound no.	25	26	27	28	29	30
A549 viability	1.6%	-2.1%	-4.2%	-1.3%	1.3%	?
Nrf2 activator	9.5%	8.9%	-0.4%	.	.	-2.9%
p53 reactivator	.	.	.	.	.	-15.3%
ClpP mod	17.8µM*	31.6µM*	-0.8%	.	.	0.9%
Nrf2 block	6.3%	0.1%	-2.5%	-14.6%	?	14.6µM*
miR-21 reporter	19.3%	-5.9%	.	.	.	.

# A draw from above in order of length of the SMILES, rising.
7. CC(=O)NCCc1cc2cc(C)c(C)cc2[nH]c1=O
14. CCOc1cccc2cc(C(=O)Oc3ccc(OC)cc3)c(=O)oc12
3. CCOC(=O)C1(Cc2ccccc2)CCN(Cc2cccn2-c2nccs2)CC1
Screen / compound no.	7	14	3
A549 viability	-10.0%	-0.1%	-15.6%
Nrf2 activator	0.0%	2.9%	7.1%
p53 reactivator	-1.1%	.	0.0%
ClpP mod	?	-5.9%	4.47µM*
Nrf2 block	-6.2%	0.3%	?
miR-21 reporter	-7.0%	-4.6%	12.8%

# Later entries
31. Cc1ccc(CNC(=O)C(=O)Nc2c3c(nn2-c2ccc(F)cc2)CSC3)cc1
32. c1ccc(-c2n[nH]c(-c3ccccn3)n2)nc1
33. c1ccc(-c2n[nH]c(-c3ccccn3)n2)cc1
34. COc1cc(NC(=O)CSCc2cnn(-c3ccccc3)c2-n2cccc2)cc(OC)c1
35. COc1ccc(OC)c(NC(=O)CSCc2cnn(-c3ccccc3)c2-n2cccc2)c1
36. O=C(NCc1ccccc1)c1nc(-c2ccc(Cl)cc2)n2c1CCCCC2
Screen / compound no.	31	32	33	34	35	36
A549 viability	-14.2%	4.0%	4.0%	-7.2%	-5.1%	-20.2%
Nrf2 activator	-0.5%	0.5%	9.1%	0.5%	0.4%	0.3%
p53 reactivator	.	?	?	-13.4%	-2.1%	.
ClpP mod	-1.3%	25.1µM*	-8.7%	-0.7%	31.6µM*	-3.6%
Nrf2 block	.	?	?	?	-1.6%	-113.7%
miR-21 reporter	-0.6%	-16.5%	-28.4%	-2.0%	14.6%	?

37. CCOc1ccccc1CNC(=O)c1nc(-c2ccc(Cl)cc2)n2c1CCCCC2
38. CC(C)N(Cc1ccccc1)C(=O)c1nc(-c2ccc(Cl)cc2)n2c1CCCCC2
39. O=C1[C@H](Cc2ccccc2)NC/C=C\C[C@H](c2ccco2)N1Cc1ccccc1
40. CN(C)c1ccc(C2CC(c3cccc(NS(C)(=O)=O)c3)=NN2C(=O)c2ccccc2)cc1 (stereo not given)
41. CS(=O)(=O)Nc1ccc(C2=NN(C(=O)c3ccccc3)C(c3cccs3)C2)cc1 (stereo not given)
42. CS(=O)(=O)Nc1ccc(C2=NN(C(=O)c3cccc(F)c3)C(c3cccs3)C2)cc1 (stereo not given)
43. O=C(Nc1cccc(S(=O)(=O)N2CCCCC2)c1)c1cc2ccccc2o1
Screen / compound no.	37	38	39	40	41	42	43
A549 viability	-10.3%	-12.5%	.	?	-10.7%	?	-12.5%
Nrf2 activator	2.9%	0.8%	.	2.8%	3.0%	3.0%	1.7%
p53 reactivator	.	.	.	-3.4%	-11.6%	-9.8%	10.1%
ClpP mod	?	-0.8%	-2.9%	.	-5.4%	-3.8%	-6.9%
Nrf2 block	23.1µM*	20.6µM*	.	23.1µM*	?	18.4µM*	23.1µM*
miR-21 reporter	3.1%	?	.	0.0%	-7.5%	-6.2%	.
